Source: the supplement of paper PMC8024199

Legend:
Assay in all cases: drug sensitivity score (DSS) (DSS score); higher = more sensitive (stronger growth inhibition); extreme values may be limits of the assay
[1] = test system: Ba/F3 P210-BCR-ABL1 RUNX1-/mut (mouse)
How it was run: (§1)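 Each value is a drug sensitivity score derived from CellTiter-Glo luminescence scaled between vehicle and positive-control wells. Mouse Ba/F3 clones, CRISPR/Cas9-edited at a target exon or edited controls, were seeded at 10,000 cells per well in RPMI with 10% FBS and treated for 72 h at 37 °C and 5% CO2. Compounds from a 528-compound library were tested at five concentrations over a 10,000-fold range, and scores were averaged over two replicates.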

[2] = test system: Ba/F3 P210-BCR-ABL1 RUNX1wt/wt control (mouse)
How it was run: as §1

[3] = test system: Ba/F3 P210-BCR-ABL1 RUNX1-/- (mouse)
How it was run: as §1

Measured: drug sensitivity score

NCc1ccc(OCCCc2sc(-c3ccc4c(c3)/C(=N/Nc3nc5ccccc5s3)CCC4)nc2C(=O)O)cc1 [WEHI-539]
0: all assays above
